Data from patent US20250129328A1, “AN ISOLATED S. SALIVARIUS STRAIN AND ITS USE AS AN ANTIMICROBIAL PRODUCING PROBIOTIC” (priority 2021, published 2025).

test system: S. salivarius DPC6487; experiment: not given; details: VetMIC Lact-1/Lact-2, anaerobic, 37° C., 48 h

**Q.** Gentamycin was tested. Which “MIC for S. salivarius DPC6487” value did it give?
**A.** 8 µg/mL

**Q.** For Neomycin, which “MIC for S. salivarius DPC6487” value is on record?
**A.** 16 µg/mL

**Q.** With Penicillin as the compound, how does the “MIC for S. salivarius DPC6487” value read?
**A.** 0.12 µg/mL

**Q.** Quinupristin-dalfopristin was tested. Which “MIC for S. salivarius DPC6487” value did it give?
**A.** 1 µg/mL

test system: S. salivarius DPC6487; experiment: microbe, parasite or virus in culture; details: Streptococcus salivarius, DPC6487, 48 h, read-out: MIC for S. salivarius DPC6487

**Q.** With `CC1(C)S[C@@H]2[C@H](NC(=O)[C@H](N)c3ccccc3)C(=O)N2[C@H]1C(=O)O` [Ampicillin] as the compound, how does the MIC read?
**A.** 0.5 µg/mL (≈ 1.43 µM)

**Q.** `O=C(N[C@H](CO)[C@H](O)c1ccc([N+](=O)[O-])cc1)C(Cl)Cl` [Chloramphenicol] was tested. Which MIC did it give?
**A.** 2 µg/mL (≈ 6.19 µM)

**Q.** `CC[C@H]1OC(=O)[C@H](C)[C@@H](O[C@H]2C[C@@](C)(OC)[C@@H](O)[C@H](C)O2)[C@H](C)[C@@H](O[C@@H]2O[C@H](C)C[C@H](N(C)C)[C@H]2O)[C@](C)(O)C[C@@H](C)C(=O)[C@H](C)[C@@H](O)[C@]1(C)O` [Erythromycin] was tested. Which MIC did it give?
**A.** 1 µg/mL (≈ 1.36 µM)

**Q.** `CC(=O)NC[C@H]1CN(c2ccc(N3CCOCC3)c(F)c2)C(=O)O1` [Linezolid] was tested. Which MIC did it give?
**A.** 1 µg/mL (≈ 2.96 µM)

**Q.** For `CN(C)[C@@H]1C(O)=C(C(N)=O)C(=O)[C@@]2(O)C(O)=C3C(=O)c4c(O)cccc4[C@@](C)(O)[C@H]3C[C@@H]12` [Tetracycline], which MIC is on record?
**A.** 1 µg/mL (≈ 2.25 µM)

**Q.** With `COc1cc(Cc2cnc(N)nc2N)cc(OC)c1OC` [Trimethoprim] as the compound, how does the MIC read?
**A.** 8 µg/mL (≈ 27.6 µM)

**Q.** `CN[C@H](CC(C)C)C(=O)N[C@H]1C(=O)N[C@@H](CC(N)=O)C(=O)N[C@H]2C(=O)N[C@H]3C(=O)N[C@H](C(=O)N[C@H](C(=O)O)c4cc(O)cc(O)c4-c4cc3ccc4O)[C@H](O)c3ccc(c(Cl)c3)Oc3cc2cc(c3O[C@@H]2O[C@H](CO)[C@@H](O)[C@H](O)[C@H]2O[C@H]2C[C@](C)(N)[C@H](O)[C@H](C)O2)Oc2ccc(cc2Cl)[C@H]1O` [Vancomycin] was tested. Which MIC did it give?
**A.** 0.5 µg/mL (≈ 0.345 µM)

Values after ≈ are worked out from the molar mass of the structure shown.
